Laboratory results taken from PubChem BioAssay AID2690 (NMMLSC, 2010).
The list shows a part of the results, in another mix than the full data. Activity calls are given as the source filed them.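 Rule for the calls: active = superoxide response under a set limit, about three screen SD below normal (cut at about 65% in these data); inactive = the rest.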

Assay: reduction of superoxide in aged yeast, primary screen, HTS (AID 2690);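 note: yeast aged for seven days with compound at 30 °C before DHE staining; 100% = average MFI of all compound-treated wells on the plate with controls excluded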
Details: S. cerevisiae aged cells, superoxide DHE fluorescence; at 10 µM; stronger effect = lower value
In the case of `COc1cc(C2NCCC3(OCCO3)C2(C)C)cc(OC)c1OC` (configuration not stated), the superoxide response (% of plate mean) is reported as inactive: 96.6%. For `CS(=O)(=O)c1cc([N+](=O)[O-])c2no[n+]([O-])c2c1`, the superoxide response (% of plate mean) was inactive: 123%. For `O=P(Nc1nccs1)(c1ccccc1)c1nc2ccccc2s1` (configuration not stated), the superoxide response (% of plate mean) was inactive: 103%. For `O=P(Nc1nccs1)(Oc1ccccc1)Oc1ccccc1`, the superoxide response (% of plate mean) was inactive: 106%. For `CCOP1(=S)c2c(C)nn(CCC#N)c2N=C(c2ccccc2F)N1C` (configuration not stated), the superoxide response (% of plate mean) was inactive: 89.5%. For `O=C(O)COc1ccc([As](=O)(O)O)cc1[N+](=O)[O-]`, the superoxide response (% of plate mean) was inactive: 92.8%. For `Nc1ccccc1[As](=O)(O)c1ccccc1`, the superoxide response (% of plate mean) was inactive: 102%. For `NC(=O)Nc1ccc([As](=O)(O)O)cc1`, the superoxide response (% of plate mean) was inactive: 91.7%. In the case of `CN(C(=O)Cc1ccc(Cl)c(Cl)c1)[C@H]1CC[C@@]2(CCCO2)C[C@@H]1N1CCCC1`, the superoxide response (% of plate mean) is reported as inactive: 95.8%. With `CN(C)C(=O)c1cc([N+](=O)[O-])cc2c1-c1c(cc([N+](=O)[O-])cc1[N+](=O)[O-])C2=O` the superoxide response (% of plate mean) was inactive: 103%. In the case of `O=[N+]([O-])c1ccc2c(c1)nnn2O`, the superoxide response (% of plate mean) is reported as inactive: 118%. In the case of `CCOP1(=S)c2c(C)nn(CCC#N)c2N=C(c2ccc(F)cc2)N1C` (configuration not stated), the superoxide response (% of plate mean) is reported as inactive: 90.4%. For `CN(C(=O)Cc1ccccc1)[C@@H]1CC[C@]2(CCCO2)C[C@H]1N1CCCC1`, the superoxide response (% of plate mean) was inactive: 95.7%. In the case of `N#CCCN(C(=O)COC(=O)C(O)(c1ccccc1)c1ccccc1)c1ccc(F)cc1`, the superoxide response (% of plate mean) is reported as inactive: 98.7%. With `COc1cc(C(=O)NCC2(N3CCOCC3)CCCCC2)ccc1OCC(C)C` the superoxide response (% of plate mean) was inactive: 113%. In the case of `C[As](=O)(O)c1cccc(C(=O)O)c1`, the superoxide response (% of plate mean) is reported as inactive: 89%. With `O=[As](O)(c1ccc(O)cc1)c1ccccc1O` the superoxide response (% of plate mean) was inactive: 94%. In the case of `Cc1ccc2nc3c(c(C)c2c1)CC(C(Cl)Cl)S3` (configuration not stated), the superoxide response (% of plate mean) is reported as inactive: 98.6%. In the case of `Cc1ccc(OP(=O)(Nc2ccc([N+](=O)[O-])cn2)Oc2ccc(C)cc2)cc1`, the superoxide response (% of plate mean) is reported as inactive: 84%. With `CC(C)c1ccc(OP(=O)(Nc2ccccn2)Oc2ccccc2F)cc1` (configuration not stated) the superoxide response (% of plate mean) was inactive: 95.5%. With `ClCCSc1nnc(-c2cccnc2)o1` the superoxide response (% of plate mean) was inactive: 97.9%. For `O=[N+]([O-])c1cc([N+](=O)[O-])c(-c2ccn[nH]2)s1`, the superoxide response (% of plate mean) was inactive: 91.3%. With `CCN(CC)C(=S)SC(NC=O)C(Cl)(Cl)Cl` (configuration not stated) the superoxide response (% of plate mean) was inactive: 140%. For `CC(C)NC(=O)NP(=O)(Oc1ccccc1)Oc1ccccc1`, the superoxide response (% of plate mean) was inactive: 95.5%. With `Cc1cc(=O)[nH]c(N[N+](=O)[O-])n1` the superoxide response (% of plate mean) was inactive: 89.4%. With `O=C(OC1CN2CCC1CC2)C12CC3CC(CC(C3)C1)C2` (configuration not stated) the superoxide response (% of plate mean) was inactive: 92.8%. For `Cc1c2c(nc3ccccc13)SC(C(Cl)Cl)C2` (configuration not stated), the superoxide response (% of plate mean) was inactive: 105%. For `COc1cc(I)ccc1[As](=O)(O)O`, the superoxide response (% of plate mean) was inactive: 91.1%. In the case of `COc1ccc2nc(NP(=O)(c3ccccc3)c3ccccc3)sc2c1`, the superoxide response (% of plate mean) is reported as inactive: 100%. In the case of `COc1ccc(N/C(=N/P(=O)(N2CCOCC2)N2CCOCC2)N2CCOCC2)cc1`, the superoxide response (% of plate mean) is reported as inactive: 96.9%. In the case of `COP1(=S)c2c(C)nn(CCC#N)c2N=C(c2ccc(F)cc2)N1C` (configuration not stated), the superoxide response (% of plate mean) is reported as inactive: 78.5%. With `O=C(Nc1ccncc1[N+](=O)[O-])c1ccc([N+](=O)[O-])cc1[N+](=O)[O-]` the superoxide response (% of plate mean) was inactive: 102%. In the case of `O=C(COc1ccccc1)OC1CN2CCC1CC2` (configuration not stated), the superoxide response (% of plate mean) is reported as inactive: 104%. In the case of `CCOC(=O)c1ccc(NC(=O)C(C)(CCl)SC)cc1` (configuration not stated), the superoxide response (% of plate mean) is reported as inactive: 109%. With `O=C(OC1CN2CCC1CC2)c1cccc([N+](=O)[O-])c1` (configuration not stated) the superoxide response (% of plate mean) was inactive: 101%. With `CCC(C)N(CC(C)C)C(=S)SC(NC(C)=O)C(Cl)(Cl)Cl` (configuration not stated) the superoxide response (% of plate mean) was inactive: 91.3%. In the case of `CCOC(=O)Nc1ccc([As](=O)(O)O)c(O)c1`, the superoxide response (% of plate mean) is reported as inactive: 102%. In the case of `Cc1cc(SC(NC(=O)c2ccccc2)C(Cl)(Cl)Cl)nc(C(C)C)n1` (configuration not stated), the superoxide response (% of plate mean) is reported as inactive: 98.1%. With `CCOC(=O)Nc1cccc([As](=O)(O)O)c1` the superoxide response (% of plate mean) was inactive: 96.8%. In the case of `O=[N+]([O-])c1ccc(Nc2ccc(Oc3ccc([N+](=O)[O-])cc3[N+](=O)[O-])cc2)c([N+](=O)[O-])c1`, the superoxide response (% of plate mean) is reported as inactive: 101%. In the case of `Cc1cc(SC(NC=O)C(Cl)(Cl)Cl)ncn1` (configuration not stated), the superoxide response (% of plate mean) is reported as inactive: 101%. For `O=P(Nc1ccccn1)(c1cccc2ccccc12)c1cccc2ccccc12`, the superoxide response (% of plate mean) was inactive: 107%.
